Source: paper PMC8219408, “Switching Cytolytic Nanopores into Antimicrobial Fractal Ruptures by a Single Side Chain Mutation” (ACS nano, 2021)
Converted amounts (≈) assume the structure as drawn.

Experiments:
Format in all cases: cell-based
[1] = system: Human erythrocytes; experiment: Hemolysis assay; conditions: peptide at 250 μM; 10% (vol/vol) human erythrocytes in PBS pH 7.2, 1 h at room temperature, absorbance 550 nm, deionized water = 100%, triplicate
Method: For hemolysis measurements 10% (vol/vol) suspensions of human erythrocytes with peptides were used. Phosphate buffer saline (PBS, 10 mM, pH 7.2) was used to rinse human red blood cells (4x) using repeated centrifugation and re-suspension (3 min, 3000 × g). The cells were incubated for 1 h at room temperature in deionized water (fully hemolysed control), with peptide in PBS or just PBS, which was followed by centrifugation (5 min, 10000 × g). The obtained supernatant was then separated from the pellet, and absorbance (550 nm) was measured in a SpectraMax i3x multi-mode microplate reader (Molecular Devices). Absorbance obtained for the suspension that was treated with deionized water gave complete (100%) hemolysis. Table S1 summarises the results, with the values corresponding to % hemolysis for peptide at 250 μM. All tests were performed in triplicate.

[2] = system: B. subtilis (ATCC 6633); conditions: broth microdilution (CLSI), Mueller Hinton broth, 24 h at 37 °C, triplicate
Method: (§1) MIC values were obtained using broth microdilution against different bacteria following the protocols by Clinical and Laboratory Standards Institute. Specifically, each bacterium (100 μL of 0.5–1 × 10^6 CFU per ml) in Mueller Hinton media broth (Oxoid) was incubated in 96-well microtiter plates at 37 °C on a 3D orbital shaker. 100 μL of serial twofold peptide dilutions (from 100 to 0 μM) were used. Following peptide addition, absorbance (600 nm) was measured in a SpectraMax i3x multi-mode microplate reader (Molecular Devices). The lowest peptide concentrations inhibiting visible bacterial growth after 24 h at 37 °C was defined as MICs. All tests were performed in triplicate.

[3] = system: P. aeruginosa (ATCC 27853); conditions: broth microdilution (CLSI), Mueller Hinton broth, 24 h at 37 °C, triplicate
Method: as §1

[4] = system: S. typhimurium (6192); conditions: broth microdilution (CLSI), Mueller Hinton broth, 24 h at 37 °C, triplicate
Method: as §1

[5] = system: E. coli (ATCC 15597); conditions: broth microdilution (CLSI), Mueller Hinton broth, 0.5–1 × 10^6 CFU per ml, 24 h at 37 °C, absorbance 600 nm, triplicate
Method: as §1

CC[C@H](C)[C@H](NC(=O)CN)C(=O)NCC(=O)N[C@@H](C)C(=O)N[C@H](C(=O)N[C@@H](CC(C)C)C(=O)N[C@@H](CCCCN)C(=O)N[C@H](C(=O)N[C@@H](CC(C)C)C(=O)N[C@H](C(=O)N[C@H](C(=O)NCC(=O)N[C@@H](CC(C)C)C(=O)N1CCC[C@H]1C(=O)N[C@@H](C)C(=O)N[C@@H](CC(C)C)C(=O)N[C@H](C(=O)N[C@@H](CO)C(=O)N[C@@H](Cc1c[nH]c2ccccc12)C(=O)N[C@H](C(=O)N[C@@H](CCCCN)C(=O)N[C@@H](CCCNC(=N)N)C(=O)N[C@@H](CCCCN)C(=O)N[C@@H](CCCNC(=N)N)C(=O)N[C@@H](CCC(N)=O)C(=O)N[C@@H](CCC(N)=O)C(N)=O)[C@@H](C)CC)[C@@H](C)CC)[C@@H](C)O)[C@@H](C)O)C(C)C)C(C)C [melittin, reference compound]
% hemolysis, at 250 μM [1]: 100%
Minimum inhibitory concentration [2]: 3 µM (≈ 8.54 µg/mL)
Minimum inhibitory concentration [3]: 12 µM (≈ 34.2 µg/mL)
Minimum inhibitory concentration [4]: 3 µM (≈ 8.54 µg/mL)
Minimum inhibitory concentration [5]: 3 µM (≈ 8.54 µg/mL)
